Laboratory results: publication PMC11286758
The list shows a part of the results.

By UniProt entry, the sequences of proteins in these tests, tags left out.
UniProt Q13216, whole entry: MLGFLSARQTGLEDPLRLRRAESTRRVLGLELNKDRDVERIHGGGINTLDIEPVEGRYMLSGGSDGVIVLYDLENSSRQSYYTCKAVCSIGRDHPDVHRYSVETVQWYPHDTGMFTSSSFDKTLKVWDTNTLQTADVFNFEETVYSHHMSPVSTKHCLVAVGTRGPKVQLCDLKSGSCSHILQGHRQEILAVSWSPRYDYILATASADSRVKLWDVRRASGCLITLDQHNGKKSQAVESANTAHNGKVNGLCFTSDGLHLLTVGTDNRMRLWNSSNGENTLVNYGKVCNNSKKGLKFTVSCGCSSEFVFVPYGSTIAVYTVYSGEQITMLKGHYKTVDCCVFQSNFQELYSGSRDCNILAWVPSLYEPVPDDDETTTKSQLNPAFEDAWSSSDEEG
UniProt Q2YD98, whole entry: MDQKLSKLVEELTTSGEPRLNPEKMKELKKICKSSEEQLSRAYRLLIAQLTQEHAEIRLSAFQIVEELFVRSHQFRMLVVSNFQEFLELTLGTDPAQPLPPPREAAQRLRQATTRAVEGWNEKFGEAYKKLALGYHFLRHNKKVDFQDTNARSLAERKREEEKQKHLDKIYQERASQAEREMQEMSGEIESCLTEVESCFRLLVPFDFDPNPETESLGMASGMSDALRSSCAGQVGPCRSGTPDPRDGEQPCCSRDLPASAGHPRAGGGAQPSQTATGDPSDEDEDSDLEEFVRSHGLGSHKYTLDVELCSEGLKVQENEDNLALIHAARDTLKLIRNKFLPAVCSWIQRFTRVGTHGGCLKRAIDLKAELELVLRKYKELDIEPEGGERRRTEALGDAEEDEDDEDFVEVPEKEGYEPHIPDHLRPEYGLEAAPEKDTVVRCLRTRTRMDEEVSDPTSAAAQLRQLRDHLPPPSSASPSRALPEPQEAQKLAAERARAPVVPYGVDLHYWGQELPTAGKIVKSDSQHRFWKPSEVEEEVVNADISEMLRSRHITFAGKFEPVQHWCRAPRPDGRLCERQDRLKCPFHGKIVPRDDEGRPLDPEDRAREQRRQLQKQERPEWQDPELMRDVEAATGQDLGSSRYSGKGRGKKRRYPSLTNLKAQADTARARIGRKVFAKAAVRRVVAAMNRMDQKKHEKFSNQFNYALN
DNA excision repair protein ERCC-6, UniProt Q03468, whole entry: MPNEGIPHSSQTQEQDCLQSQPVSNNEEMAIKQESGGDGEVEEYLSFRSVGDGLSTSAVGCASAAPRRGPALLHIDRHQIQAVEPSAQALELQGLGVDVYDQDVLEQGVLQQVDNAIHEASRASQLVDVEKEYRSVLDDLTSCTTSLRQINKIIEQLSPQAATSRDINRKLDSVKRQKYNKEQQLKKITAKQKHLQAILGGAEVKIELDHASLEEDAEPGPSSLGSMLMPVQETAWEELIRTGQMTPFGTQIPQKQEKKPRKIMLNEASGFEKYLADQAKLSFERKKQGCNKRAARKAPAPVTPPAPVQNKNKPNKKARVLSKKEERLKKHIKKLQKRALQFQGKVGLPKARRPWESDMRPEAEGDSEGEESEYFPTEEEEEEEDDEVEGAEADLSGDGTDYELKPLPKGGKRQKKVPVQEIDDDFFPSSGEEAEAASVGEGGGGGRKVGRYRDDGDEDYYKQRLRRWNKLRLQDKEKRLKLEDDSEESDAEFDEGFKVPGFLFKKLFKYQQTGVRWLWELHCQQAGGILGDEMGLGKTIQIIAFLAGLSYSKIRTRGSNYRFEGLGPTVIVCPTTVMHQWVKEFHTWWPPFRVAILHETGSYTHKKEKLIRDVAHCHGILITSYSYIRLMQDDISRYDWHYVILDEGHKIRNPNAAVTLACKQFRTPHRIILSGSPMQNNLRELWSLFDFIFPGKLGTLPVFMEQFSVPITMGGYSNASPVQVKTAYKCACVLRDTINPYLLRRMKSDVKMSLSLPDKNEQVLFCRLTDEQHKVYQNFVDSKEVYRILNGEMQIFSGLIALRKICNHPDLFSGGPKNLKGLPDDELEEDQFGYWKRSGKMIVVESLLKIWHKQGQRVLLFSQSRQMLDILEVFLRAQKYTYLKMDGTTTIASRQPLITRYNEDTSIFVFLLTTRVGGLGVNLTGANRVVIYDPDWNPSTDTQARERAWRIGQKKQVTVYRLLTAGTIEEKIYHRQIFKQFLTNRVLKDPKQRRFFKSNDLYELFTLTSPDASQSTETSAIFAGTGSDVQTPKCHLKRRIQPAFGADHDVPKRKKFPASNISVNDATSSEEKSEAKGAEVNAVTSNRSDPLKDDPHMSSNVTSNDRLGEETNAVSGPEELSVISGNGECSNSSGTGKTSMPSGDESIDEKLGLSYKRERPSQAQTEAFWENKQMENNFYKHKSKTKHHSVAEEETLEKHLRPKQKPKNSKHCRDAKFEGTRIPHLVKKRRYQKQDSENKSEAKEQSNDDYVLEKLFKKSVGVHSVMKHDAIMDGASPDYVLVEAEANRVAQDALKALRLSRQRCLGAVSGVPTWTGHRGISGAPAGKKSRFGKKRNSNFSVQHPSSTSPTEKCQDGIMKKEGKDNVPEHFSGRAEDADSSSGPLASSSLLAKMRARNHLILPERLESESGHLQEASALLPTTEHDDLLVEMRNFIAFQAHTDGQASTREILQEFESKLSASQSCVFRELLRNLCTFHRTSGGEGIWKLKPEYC

Experiments:
[1] = molecular target: DNA excision repair protein ERCC-8 (UniProt Q13216); test: cross-link between two proteins; cross-linking mass spectrometry
[2] = molecular target: UV-stimulated scaffold protein A (UniProt Q2YD98); test: as above

## DNA excision repair protein ERCC-6, Q03468
[1]
  listed as a hit: yes
[2]
  listed as a hit: yes
